Measurements published in patent publication US8178577B2, “Tricyclic derivatives as potent and selective histone deacetylase inhibitors” (Shenzhen Chipscreen Biosciences Ltd., priority 2008, dated 2012).

The chains behind the UniProt entries cited, without tags or fusion partners. Where a name states a change or a piece, a line headed by the entry shows the natural chain unless it says otherwise.
UniProt O15379: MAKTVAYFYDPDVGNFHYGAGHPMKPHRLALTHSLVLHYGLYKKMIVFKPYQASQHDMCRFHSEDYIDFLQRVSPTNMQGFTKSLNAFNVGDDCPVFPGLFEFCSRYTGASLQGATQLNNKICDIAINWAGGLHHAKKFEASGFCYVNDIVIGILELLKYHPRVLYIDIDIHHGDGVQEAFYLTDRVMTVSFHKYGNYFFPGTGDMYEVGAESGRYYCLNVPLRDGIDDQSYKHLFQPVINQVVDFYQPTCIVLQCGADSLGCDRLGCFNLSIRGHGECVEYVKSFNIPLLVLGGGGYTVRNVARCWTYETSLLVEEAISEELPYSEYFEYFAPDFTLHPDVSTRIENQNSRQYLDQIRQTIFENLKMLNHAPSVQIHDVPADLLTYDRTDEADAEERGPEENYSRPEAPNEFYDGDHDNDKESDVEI

Key:
Type in all cases: cell-based
[1] = molecular target: T1, (Homo sapiens, UniProt Q9UBN7); assay: Cytoblot assay of acetylation of α-tubulin in A549 cells; conditions: 24 hours
T1 construct: endogenous in cells; host or cells: A549
T1 sequence (Q9UBN7 1-1215): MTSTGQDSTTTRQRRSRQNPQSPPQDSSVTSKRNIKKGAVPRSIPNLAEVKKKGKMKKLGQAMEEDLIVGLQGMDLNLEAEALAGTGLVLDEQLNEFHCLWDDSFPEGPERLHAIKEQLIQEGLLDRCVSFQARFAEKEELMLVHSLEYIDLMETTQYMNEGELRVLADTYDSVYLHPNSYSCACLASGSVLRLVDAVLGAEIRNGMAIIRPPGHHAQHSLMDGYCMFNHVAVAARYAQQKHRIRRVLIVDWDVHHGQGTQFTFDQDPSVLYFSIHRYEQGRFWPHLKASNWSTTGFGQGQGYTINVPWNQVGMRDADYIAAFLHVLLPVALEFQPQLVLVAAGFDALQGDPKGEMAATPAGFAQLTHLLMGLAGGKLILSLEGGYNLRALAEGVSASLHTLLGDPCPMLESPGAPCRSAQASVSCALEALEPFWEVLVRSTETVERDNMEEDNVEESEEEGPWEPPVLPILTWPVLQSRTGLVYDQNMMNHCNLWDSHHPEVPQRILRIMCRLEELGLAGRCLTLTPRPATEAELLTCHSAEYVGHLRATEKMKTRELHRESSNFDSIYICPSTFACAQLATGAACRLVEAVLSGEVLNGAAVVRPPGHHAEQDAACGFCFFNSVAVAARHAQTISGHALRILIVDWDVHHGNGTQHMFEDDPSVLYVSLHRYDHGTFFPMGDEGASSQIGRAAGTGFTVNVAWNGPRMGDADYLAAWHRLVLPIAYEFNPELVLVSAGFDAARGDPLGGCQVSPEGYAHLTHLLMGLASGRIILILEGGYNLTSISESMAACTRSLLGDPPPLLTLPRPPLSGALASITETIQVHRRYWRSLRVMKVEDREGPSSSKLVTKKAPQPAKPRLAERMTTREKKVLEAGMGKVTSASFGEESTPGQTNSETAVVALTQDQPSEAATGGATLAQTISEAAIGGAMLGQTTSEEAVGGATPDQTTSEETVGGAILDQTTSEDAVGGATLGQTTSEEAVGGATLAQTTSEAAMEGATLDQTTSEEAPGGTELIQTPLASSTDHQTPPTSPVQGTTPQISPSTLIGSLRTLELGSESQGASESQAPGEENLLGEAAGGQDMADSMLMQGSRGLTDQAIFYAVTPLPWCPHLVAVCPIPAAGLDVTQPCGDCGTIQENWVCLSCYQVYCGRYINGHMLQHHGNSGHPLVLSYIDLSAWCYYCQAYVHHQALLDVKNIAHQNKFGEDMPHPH
Description: This assay is used to measure in vivo inhibition of HDAC6 in a cytoblot assay.
• 1. […] Compounds were added and incubated for 24 hours at 37° C. • 3.

[2] = molecular target: T2, HDAC3 (Homo sapiens, UniProt O15379); assay: gdf11 reporter gene assay in HeLa cells; conditions: 24 h, read-out: % of SAHA Response for HDAC3 at 10 μM (gdf11 reporter gene)
T2 construct: endogenous in cells; host or cells: HeLa
Description: (§1) HDAC subtype selectivity inhibition assay of tested compounds was carried out by several reporter gene assays experiments. Briefly, HeLa cells were seeded in 96-well plates the day before transfection to give a confluence of 50-80%. Cells were transfected with one of reporter gene plasmids containing a promoter sequences or response elements upstream of a luciferase gene construct using FuGene6 transfection reagent according to the manufacturer's instructions (Roche). The promoter or response elements including p21-promoter, gdf11-promoter, serum response element (SRE), MEF-binding element were fused upstream to the luciferase gene reporter construct. For normalizing the transfection efficiency, a GFP expression plasmid was cotransfected. Cells were allowed to express protein for 24 hours followed by addition of individual compounds or the vehicle (DMSO). 24 hours later the cells were harvested, and the luciferase assays were performed using the luciferase assay kit according to the manufacturer's instructions (Promega). To normalize the data from the luciferase assays, β-galactosidase activity from transfected cells was measured using a kit (Promega) as instructed by the manufacturer.

[3] = molecular target: T3, HDAC7 (Homo sapiens, UniProt Q8WUI4); assay: Nur77 reporter gene assay in HeLa cells; conditions: 24 h, read-out: % of SAHA Response for HDAC7 at 10 μM (Nur77 reporter gene)
T3 construct: endogenous in cells; host or cells: HeLa
T3 sequence (Q8WUI4 1-952): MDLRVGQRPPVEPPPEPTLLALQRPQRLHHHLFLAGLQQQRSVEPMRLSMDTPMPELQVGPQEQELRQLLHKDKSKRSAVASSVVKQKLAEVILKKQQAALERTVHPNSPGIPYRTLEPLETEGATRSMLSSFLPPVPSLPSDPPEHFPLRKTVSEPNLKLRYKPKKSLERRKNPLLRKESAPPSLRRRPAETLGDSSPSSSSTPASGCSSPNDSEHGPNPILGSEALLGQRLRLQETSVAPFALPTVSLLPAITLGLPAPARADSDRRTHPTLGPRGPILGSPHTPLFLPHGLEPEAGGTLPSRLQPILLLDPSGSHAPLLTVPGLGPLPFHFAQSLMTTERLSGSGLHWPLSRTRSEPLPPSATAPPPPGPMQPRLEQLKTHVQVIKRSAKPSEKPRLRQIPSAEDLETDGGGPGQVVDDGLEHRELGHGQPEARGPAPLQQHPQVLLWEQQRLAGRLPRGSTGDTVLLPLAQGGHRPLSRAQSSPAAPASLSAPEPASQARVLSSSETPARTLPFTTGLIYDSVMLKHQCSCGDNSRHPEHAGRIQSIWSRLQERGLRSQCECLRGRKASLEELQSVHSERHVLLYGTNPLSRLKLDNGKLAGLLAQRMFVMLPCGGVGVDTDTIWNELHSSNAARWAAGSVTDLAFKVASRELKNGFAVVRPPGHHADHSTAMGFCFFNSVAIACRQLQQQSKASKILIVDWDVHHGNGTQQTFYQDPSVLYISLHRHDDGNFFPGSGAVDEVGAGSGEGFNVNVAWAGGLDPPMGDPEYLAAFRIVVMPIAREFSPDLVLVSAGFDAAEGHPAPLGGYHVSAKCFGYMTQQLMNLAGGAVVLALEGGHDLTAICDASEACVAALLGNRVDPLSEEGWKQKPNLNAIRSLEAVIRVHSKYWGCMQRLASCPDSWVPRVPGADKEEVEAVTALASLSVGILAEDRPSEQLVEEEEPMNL
Description: as §1

O=C(C=C1c2ccccc2-c2ccccc21)NCCCCCC(=O)NO [Example 11, 6-(2-(9H-fluoren-9-ylidene)acetamido)-N-hydroxyhexanamide]
Fold of tubulin acetylation (HDAC7 at 10 μM) [1]: 3.141 Fold
activation at 10 µM [2]: 81%
activation at 10 µM [3]: 90%
